Molecular target: T1, fatty acid amide hydrolase (FAAH) (Rattus norvegicus, UniProt P97612)
T1 construct: from tissue; host or cells: rat brain membrane fraction
Type: binding

Protein sequences, listed by entry. Tags and fused reporters are not part of them.
UniProt P97612, whole entry: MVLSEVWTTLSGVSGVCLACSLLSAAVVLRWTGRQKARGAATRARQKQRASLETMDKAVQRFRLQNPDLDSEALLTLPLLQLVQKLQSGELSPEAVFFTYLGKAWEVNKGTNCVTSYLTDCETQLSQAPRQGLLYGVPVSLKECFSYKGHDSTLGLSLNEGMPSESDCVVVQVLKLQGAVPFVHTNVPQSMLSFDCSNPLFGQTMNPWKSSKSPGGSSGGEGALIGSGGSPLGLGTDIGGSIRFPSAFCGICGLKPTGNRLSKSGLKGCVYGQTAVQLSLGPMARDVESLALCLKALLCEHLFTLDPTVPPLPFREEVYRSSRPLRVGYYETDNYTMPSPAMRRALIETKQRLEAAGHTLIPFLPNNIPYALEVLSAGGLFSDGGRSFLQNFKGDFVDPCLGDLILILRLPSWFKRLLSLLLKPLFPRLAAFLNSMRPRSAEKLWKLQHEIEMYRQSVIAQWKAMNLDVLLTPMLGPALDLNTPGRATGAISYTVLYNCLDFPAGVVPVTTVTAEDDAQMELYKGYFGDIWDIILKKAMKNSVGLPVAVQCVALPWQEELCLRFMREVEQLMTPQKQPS

Substance: oleoyl trifluoromethyl ketone [OTFMK]
- selectivity for FAAH among other brain membrane serine hydrolases: approximately one order of magnitude
